Measurements as given in patent US20240228615A1 (published 2024).

Sequences of proteins named here, by UniProt entry; tags and fusion partners are left off. Residues count along the entry.
UniProt Q9NP99, 21-205: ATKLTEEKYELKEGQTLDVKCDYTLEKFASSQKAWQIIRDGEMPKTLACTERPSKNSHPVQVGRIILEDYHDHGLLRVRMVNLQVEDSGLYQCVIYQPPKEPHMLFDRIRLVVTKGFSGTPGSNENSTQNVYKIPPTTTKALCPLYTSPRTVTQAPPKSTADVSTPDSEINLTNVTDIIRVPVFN

B1: mAb 0318-IgG1-Aba (antibody)
heavy: not shown
light: DIVLTQSPDSLAVSLGERATINCRASQSVDTFDYSFLHWYQQKPGQPPKLLIYRASNLESGVPDRFSGSGSGTDFTLTISSLQAEDVAVYYCQQSNQDPYTFGQGTKLEIKRTVAAPSVFIFPPSDEQLKSGTASVVCLLNNFYPREAKVQWKVDNALQSGNSQESVTEQDSKDSTYSLSSTLTLSKADYEKHKVYACEVTHQGLSSPVTKSFNRGEC
B2: mAb 0318-IgG1.1f (antibody)
heavy: EVQLVESGGGLVQPGGSLKLSCAASGFTFSTYAMHWVRQASGKGLEWVGRIRTKSSNYATYYAASVKGRFTISRDDSKNTAYLQMNSLKTEDTAVYYCTRDMGIRRQFAYWGQGTLVTVSSASTKGPSVFPLAPSSKSTSGGTAALGCLVKDYFPEPVTVSWNSGALTSGVHTFPAVLQSSGLYSLSSVVTVPSSSLGTQTYICNVNHKPSNTKVDKRVEPKSCDKTHTCPPCPAPEAEGAPSVFLFPPKPKDTLMISRTPEVTCVVVDVSHEDPEVKFNWYVDGVEVHNAKTKPREEQYNSTYRVVSVLTVLHQDWLNGKEYKCKVSNKALPSSIEKTISKAKGQPREPQVYTLPPSREEMTKNQVSLTCLVKGFYPSDIAVEWESNGQPENNYKTTPPVLDSDGSFFLYSKLTVDKSRWQQGNVFSCSVMHEALHNHYTQKSLSLSPG
light: B1 light
B3: mAb 0318-IgG4-Aba (antibody)
heavy: not shown
light: B1 light

Molecular target: huTREM1 (UniProt Q9NP99 21-205)
Experiment: SPR; FIG. 1B

Row | Binder | Kd [nM]
1 | B1 | 0.899
2 | B2 | 0.866
3 | B3 | 0.889
